We go through one compound from patent EP4825847A1, “NMDA RECEPTOR ANTAGONIST AND USE THEREOF” (dated 2026).

The test system of data set [1] is C57BL/6J male mice. The data set is described as follows: Pre-pulse inhibition test. The following applies: 45 mg/kg; pre-pulse level of 76 dB. The source says: Pre-pulse inhibition phenomenon is an important parameter to evaluate the sensorimotor gating function, and an index to evaluate schizophrenia-like behavior. This phenomenon means that a weak stimulus occurring before a strong stimulus will reduce the degree of animal response to the strong stimulus. In the present invention, the PPI test was used to evaluate whether the compound could induce psychotomimetic-like behavior in mice.
The animal information was the same as that in Test Example 2. The number of animals in each group (N) was 10, and the administration mode was intraperitoneal injection or oral administration (p.o.). The dosage of S-ketamine was 20 mg/kg, the dosage of other compounds was 45 mg/kg, and the administration volume was 10 mL/kg. The dosage for oral administration was 10 mg/kg.
Test process: The test was carried out in a quiet environment. The mice were weighed and acclimated in the test chamber for at least 30 min before the test. The PPI test was divided into four stages, including: acclimation stage, Block 1, Block 2, and Block 3. At the beginning of the test, the mice were given corresponding doses of solvent (control group) or test compound according to their body weight. Then the mice were placed in a startle response chamber and allowed to acclimate for 5 min without stimulation. Then in Block 1-3, the mice were given startle stimuli of varying decibel intensities. In Block 1 and Block 3, 10 trials were set, and each trial had no pre-pulse stimuli. The startle stimulus was set to be white noise of 120 dB. The time interval between trials varies randomly from 10 to 15 sec. Block 2 was set to have 56 trials. There were three types of stimuli: (1) a continuous startle stimulus of 120 dB was given in 8 trials; (2) a pre-pulse stimulus of 67, 70, 73, or 76 dB was given first and then a startle stimulus of 120 dB was given in 32 trials, and only pre-pulse stimulus (two trials for each of the four pre-pulse stimuli) was given in 8 trials; and (3) no stimulus was given in 8 trials, and the duration was 200 ms. The duration of pre-pulse stimulus was 20 ms, and the fixed interval was 100 ms. The duration of startle stimulus in all Block was 40 ms, and the background noise was set to 62dB. The instrument was wiped with 75% alcohol after each test, to avoid the influence of the information left by animals in the last round (such as the smell of animals' feces and urine) on the next test result. The difference was analyzed by unpaired t-test to have statistical significance, where P<0.05 means that there was a significant difference. ^# P<0.05, * P<0.05, ** P<0.01, *** P<0.001. […] Compound 2SS mesylate tends to cause loss of PPI at a pre-pulse level of 67 dB and 70 dB. Compound 2RR mesylate causes loss of PPI at a pre-pulse level of 76 dB. […]

Data set [2] deals with C57BL/6J male mice. The data set is described as follows: Toxicity test of compounds (non-toxic dose exploration, epilepsy-like behavior score). The settings on record: i.p., about one hour observation. The protocol:
The exploration test of non-toxic dose of the compound is an important index to evaluate the safety of the compound. High safety will bring a higher treatment window. The animal information was the same as that in Test Example 2.
• 1. The test was carried out in a quiet environment. The animals were weighed and acclimated in the test chamber for at least 30 min before the test. • 2. The compound to be tested was dissolved in 0.9% physiological saline, and the corresponding volume of the compound was intraperitoneally injected (i.p.) according to the weight of mice. The dosage was the target dosage of administration. The number of animals in each group was 2 or 3. • 3. The mice after administration were placed in a transparent observation chamber, and the behavior changes of the mice were video recorded and observed for about one hour. (Note: During the observation period, if the mouse was lying still, the mouse was turned over by hand, and whether the righting reflex (RR) of the mouse disappeared was checked. If disappeared, the mouse was in an anesthetic state, and the time of anesthesia of the mouse was recorded). • 4. After the one-hour observation, the mice were returned to the rearing cage. The observation chamber was wiped with 75% alcohol, to avoid the influence of the information left by animals in the last round (such as the smell of animals' feces and urine) on the next test result. The next round of animals were changed to continue the test.
Table C. Epilepsy-like behavior rating scale for rodents

Turning to `Clc1cccc([C@]23CCCC[C@H]2OCCN3)c1`, the PPI entry in the data set on C57BL/6J male mice [1] was “causes loss of PPI”. Further, in the data set with C57BL/6J male mice [2] (epilepsy-like behavior score 0), the “NOAEL dosage (mg/kg) (score 0)” value came out at 45 mg/kg. The “Minimum toxic dose (mg/kg) (score 1)” value in the data set on C57BL/6J male mice [2] (epilepsy-like behavior score 1) is on record as 60 mg/kg.
